## Ab-14 light chain CDR variants: yeast mating affinities

From the AlphaSeq antibody data of Li et al. 2023 (doi:10.1038/s41467-023-39022-2), copy in the FLAb collection.

Target: peptide PDVDLGDISGINAS, taken from heptad repeat 2 (HR2) of SARS-CoV-2 spike.

Parent: Ab-14, a human scFv built as VH, three GGGGS repeats, VL. Only the CDRs of the light chain vary.
VH: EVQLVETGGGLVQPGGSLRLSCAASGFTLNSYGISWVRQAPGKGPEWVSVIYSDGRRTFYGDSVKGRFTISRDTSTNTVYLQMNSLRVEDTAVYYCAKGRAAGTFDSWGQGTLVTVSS
VL: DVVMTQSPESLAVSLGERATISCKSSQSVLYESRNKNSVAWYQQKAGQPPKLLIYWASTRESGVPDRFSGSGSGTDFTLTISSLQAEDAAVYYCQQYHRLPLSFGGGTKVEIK

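The variants were designed computationally from a first round of random CDR variants and then made and measured. Their group label is 14L_GP_HC (GP: Gaussian process model; HC: hill climbing; a sequence that several methods proposed may carry one label only). AlphaSeq pools MATa yeast showing the antibodies with MATalpha yeast showing the peptide. The frequency of each diploid, read from paired DNA barcodes, reflects how well the two displayed proteins bind. The ratio of observed to expected reads was calibrated, replicate by replicate, on BCL2-family standards whose Kd was known from biolayer interferometry. Each pool was mated in six replicate cultures.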

Changes read parent residue, position, new residue, counted from the first residue of the VL shown.
The read-out is the apparent dissociation constant on a log10 scale (nM): the lower, the stronger.
A mean of the replicates is given; it leaves out those without a signal.
An entry "nd" has no value in the source: the pair was not observed among the diploids in that replicate. This suggests poor binding but is not conclusive.
Three control strains display no target. For all light chain designs, 4% of the pairings with them gave a signal, with a median of 2.64 and one signal in twenty below 1.59, so weak values seen in few replicates may be background. The control count says in how many pairings with the empty strains this scFv gave a signal, with their mean in brackets.
Of ten entries with the parent sequence, four were seen in most replicates (averages 0.34 to 2.37), three in one and three in none, so single entries are noisy.
In the paper, a design with two or fewer of six values counts as a poor binder.
The range of this assay differs from that of the first round, and the authors advise against merging the two.

changes | log10 Kd, replicates | mean log10 Kd (nM) | control signals
S26G S28G N37M W56G | 0.26 / 0.14 / -0.04 / 0.47 / 0.07 / 0.02 | 0.15 | 0/18
K24H Q27P S33D S38N W56N | 0.37 / -0.05 / -0.06 / -0.17 / -0.07 / 0.07 | 0.02 | 2/18 (3.90)
S25Q R34S W56D | -0.13 / -0.12 / -0.38 / -0.41 / -0.19 / 0.04 | -0.20 | 0/18
Q27I V29Y R34G W56N | 0.41 / 0.33 / 0.04 / 0.15 / 0.23 / 0.34 | 0.25 | 0/18
S25F N35V S38G W56N | 0.18 / 0.02 / 0.03 / -0.11 / -0.12 / 0.07 | 0.01 | 0/18
Q27I V29Y R34M W56H A57G | 0.05 / -0.21 / -0.04 / 0.25 / 0.58 / 0.24 | 0.15 | 0/18
S25L S26R V29T W56E E61L | 0.38 / 0.09 / 0.26 / 0.41 / 0.26 / 0.34 | 0.29 | 0/18
V29W S33D N35V W56N | 1.01 / 0.63 / 0.37 / 0.41 / 0.55 / 0.59 | 0.60 | 1/18 (2.46)
K24H Q27P V29E L30E W56N | -0.01 / 0.24 / 0.25 / 0.43 / 0.29 / 0.43 | 0.27 | 0/18
S25I S26L W56H S62D H98G | 0.13 / 0.10 / 0.32 / 0.10 / 0.10 / 0.34 | 0.18 | 1/18 (3.04)
Q27I V29Y Y31E W56E S62L | 0.08 / -0.13 / -0.20 / -0.01 / -0.07 / -0.04 | -0.06 | 2/18 (3.10)
S25V S26Q V29T W56N | -0.06 / 0.35 / 0.40 / 0.33 / 0.13 / 0.10 | 0.21 | 2/18 (2.33)
S26L W56H S62Q | 2.01 / 1.73 / 1.29 / 1.72 / 1.13 / 1.63 | 1.58 | 0/18
S25Q Y31G W56D | nd / nd / nd / nd / nd / nd | nd | 0/18
Q27Y Y31F W56N | 1.90 / 0.56 / 1.10 / 1.26 / 1.55 / 1.04 | 1.24 | 0/18
K24H S25F Q27P L30P W56N S62Q Q96D | -0.21 / -0.56 / -0.26 / -0.38 / -0.62 / 0.39 | -0.27 | 0/18
S25F Q27P S33D N35T W56N | 0.18 / 0.04 / -0.33 / -0.10 / 0.06 / 0.05 | -0.02 | 1/18 (3.54)
V29C R34G W56H | 0.72 / 0.75 / 0.72 / 0.53 / 0.58 / 0.78 | 0.68 | 1/18 (3.10)
Q27W R34N W56E S62D | 0.89 / 0.14 / 0.49 / 0.49 / 1.19 / 1.14 | 0.72 | 0/18
S25L Y31M S33W W56D | 0.26 / -0.04 / -0.21 / 0.02 / 0.10 / 0.21 | 0.06 | 1/18 (3.08)
S25C V29W S33D N35V W56G | 0.53 / 0.77 / 0.15 / 0.18 / 0.76 / 0.41 | 0.46 | 0/18
K24N S25L V29W W56E A57G S58N | -0.10 / -0.31 / -0.45 / -0.37 / -0.40 / -0.24 | -0.31 | 0/18
S25H V29E Y31M W56D | -0.18 / -0.24 / -0.18 / -0.41 / -0.12 / -0.11 | -0.21 | 1/18 (2.66)
Q27L Y31F W56D E61M | 0.52 / 1.50 / 1.46 / 0.91 / 1.17 / 1.01 | 1.10 | 2/18 (2.27)
S25Q S28A V29F Y31P W56D S58N | 0.24 / 0.01 / -0.01 / 0.09 / -0.09 / 0.13 | 0.06 | 3/18 (3.32)
S25V S26R V29E W56N | -0.12 / -0.12 / -0.23 / -0.39 / -0.24 / -0.09 | -0.20 | 0/18
S25L S26Q V29T | 1.15 / 0.71 / 0.73 / 0.80 / 0.98 / 0.90 | 0.88 | 1/18 (2.04)
R34E W56D T59Q | 0.80 / 0.44 / 0.18 / 0.08 / 0.22 / 0.91 | 0.44 | 1/18 (1.95)
Q27P V29Y W56A | 0.54 / 0.47 / 0.31 / 0.41 / 0.24 / 0.59 | 0.43 | 0/18
S25V V29F S38A W56G P101C | -0.14 / 0.13 / -0.08 / 0.17 / -0.15 / 0.14 | 0.01 | 0/18
K24H S25Q Q27P N35M W56N A57G S62V | 0.13 / 0.11 / -0.06 / -0.16 / -0.02 / 0.21 | 0.04 | 2/18 (3.80)
Q27I L30K Y31F W56D | 0.51 / 0.47 / 0.56 / 0.21 / 0.35 / 0.59 | 0.45 | 2/18 (3.72)
S25Q Y31M W56D E61S | 0.22 / 0.01 / -0.46 / -0.38 / -0.03 / 0.20 | -0.07 | 0/18
S25L W56D Q95Y | 0.77 / 0.41 / 0.47 / 0.83 / 0.89 / 1.09 | 0.74 | 0/18
S25L Q27Y W56N | -0.03 / -0.09 / -0.28 / -0.35 / 0.01 / -0.10 | -0.14 | 1/18 (2.67)
S26L S28Q V29W W56H S62Q | 0.64 / 0.18 / 0.16 / 0.66 / 0.26 / 1.19 | 0.51 | 0/18
S25F Q27F Y31L N35T W56N | 1.10 / 0.94 / 0.83 / 1.01 / 0.93 / 1.12 | 0.99 | 0/18
Q27W L30E R34N W56H S62D | 0.58 / 0.50 / 0.51 / 0.47 / 0.48 / 0.66 | 0.53 | 0/18
S25Q W56D R99W | 0.91 / 0.70 / 0.48 / 0.54 / 1.00 / 0.83 | 0.74 | 1/18 (1.47)
K24H Q27P W56N S103H | nd / 0.93 / 1.55 / 0.68 / 2.18 / 1.99 | 1.46 | 0/18

Top 5 of the variants detected in all replicates, tightest first:

changes	log10 Kd, replicates	mean log10 Kd (nM)	control signals
K24N S25L V29W W56E A57G S58N	-0.10 / -0.31 / -0.45 / -0.37 / -0.40 / -0.24	-0.31	0/18
K24H S25F Q27P L30P W56N S62Q Q96D	-0.21 / -0.56 / -0.26 / -0.38 / -0.62 / 0.39	-0.27	0/18
S25H V29E Y31M W56D	-0.18 / -0.24 / -0.18 / -0.41 / -0.12 / -0.11	-0.21	1/18 (2.66)
S25Q R34S W56D	-0.13 / -0.12 / -0.38 / -0.41 / -0.19 / 0.04	-0.20	0/18
S25V S26R V29E W56N	-0.12 / -0.12 / -0.23 / -0.39 / -0.24 / -0.09	-0.20	0/18